Each structure is given as a SMILES string.

One assay relates to MCF-7 cells. The assay can be described thus: Proliferation assay (crystal violet). As to conditions: read-out: MCF-7 IC50, MCF-7 human tumor cells, 4 days incubation.
For another assay, the target named is CDK2/CycE (Homo sapiens, UniProt P24941). Description: CDK2/CycE kinase assay. As to conditions: read-out: CDK2 IC50; recombinant CDK2/CycE-GST, histone IIIS substrate, 0.5 μm ATP, 15 minutes at 22° C. In kind it is biochemical.

What is called IC50 is the concentration at which inhibition is half-maximal. Regarding `O=C1Nc2ccc(S(=O)(=O)O)cc2/C1=C1/Nc2ccccc2C1=O`, the IC50 with MCF-7 cells is > 10 µM.

As to `Cc1ccc2c(c1)/C(=C1/Nc3ccccc3C1=O)C(=O)N2`, the figures for the concentration for half-maximal inhibition (IC50) in the assay on MCF-7 cells and on CDK2/CycE were 1 µM and 3 µM, respectively.

Regarding `O=C1Nc2ccccc2C1=C1Nc2ccccc2C1=NO`, the 50% inhibitory concentration (IC50) stood at 6 µM with MCF-7 cells and 0.9 µM at CDK2/CycE.

These data come from US20020132792A1, “Aryl-substituted indirubin derivatives, their production and use” (Schering AG, priority 2000, published 2002).
